CycPeptMPDB entries from one study

Collected by the curators of CycPeptMPDB (Li et al. 2023) from Furukawa et al. 2016, doi:10.1021/acs.jmedchem.6b01246.

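The data file gives no further conditions (lipid, pH, time, direction or concentration), and values from different papers need not be comparable. The list need not hold all peptides of the study. Entries at the database's floor value (log10 P of -10) are not listed.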

PAMPA measures passive passage through an artificial lipid membrane.
P is given in units of 10^-6 cm/s (from log10 values with two decimals); larger means faster passage.

- CCCC[C@@H]1NC(=O)[C@@H](CC(C)C)N(C)C(=O)CN(CC2CCCCC2)C(=O)[C@H](C)NC(=O)CN(Cc2ccc3c(c2)OCO3)C(=O)[C@@H]2CCCN2C1=O: PAMPA 10 × 10^-6 cm/s
- CCCC[C@@H]1NC(=O)[C@H](CC(C)C)NC(=O)CN(CC2CCOCC2)C(=O)[C@@H](Cc2ccccc2)NC(=O)CN(Cc2ccc3c(c2)OCO3)C(=O)[C@H]2CCCN2C1=O: PAMPA 1.3 × 10^-6 cm/s
- CCCC[C@@H]1NC(=O)[C@@H](CC(C)C)NC(=O)CN(CC2CCCCC2)C(=O)[C@H](Cc2ccccc2)NC(=O)CN(Cc2ccc3c(c2)OCO3)C(=O)[C@@H]2CCCN2C1=O: PAMPA 2.5 × 10^-6 cm/s
- CCCC[C@@H]1NC(=O)[C@@H](CC(C)C)NC(=O)CN(CC2CCOCC2)C(=O)[C@@H](C)NC(=O)CN(CC)C(=O)[C@H]2CCCN2C1=O: PAMPA 0.072 × 10^-6 cm/s
- CCCC[C@@H]1NC(=O)[C@@H](CC(C)C)N(C)C(=O)CN(CC2CCCCC2)C(=O)[C@H](Cc2ccccc2)NC(=O)CN(Cc2ccc3c(c2)OCO3)C(=O)[C@@H]2CCCN2C1=O: PAMPA 0.43 × 10^-6 cm/s
- CCCC[C@@H]1NC(=O)[C@H](CC(C)C)N(C)C(=O)CN(CC2CCOCC2)C(=O)[C@H](C)NC(=O)CN(Cc2ccc3c(c2)OCO3)C(=O)[C@H]2CCCN2C1=O: PAMPA 2.9 × 10^-6 cm/s
- CCCCCN1CC(=O)N(C)[C@H](CC(C)C)C(=O)N[C@@H](CCCC)C(=O)N2CCC[C@H]2C(=O)N(Cc2ccc3c(c2)OCO3)CC(=O)N[C@H](C)C1=O: PAMPA 4.7 × 10^-6 cm/s
- CCCC[C@@H]1NC(=O)[C@H](CC(C)C)NC(=O)CN(CC2CCCCC2)C(=O)[C@H](C)NC(=O)CN(CC)C(=O)[C@H]2CCCN2C1=O: PAMPA 0.78 × 10^-6 cm/s
- CCCC[C@@H]1NC(=O)[C@H](CC(C)C)NC(=O)CN(CC2CCCCC2)C(=O)[C@@H](Cc2ccccc2)NC(=O)CN(CC)C(=O)[C@@H]2CCCN2C1=O: PAMPA 5.2 × 10^-6 cm/s
- CCCCCN1CC(=O)N(C)[C@@H](CC(C)C)C(=O)N[C@@H](CCCC)C(=O)N2CCC[C@H]2C(=O)N(CCCOC(C)C)CC(=O)N[C@@H](C)C1=O: PAMPA 10 × 10^-6 cm/s
- CCCCCN1CC(=O)N[C@@H](CC(C)C)C(=O)N[C@@H](CCCC)C(=O)N2CCC[C@H]2C(=O)N(CCCOC(C)C)CC(=O)N[C@H](Cc2ccccc2)C1=O: PAMPA 5.1 × 10^-6 cm/s
- CCCC[C@@H]1NC(=O)[C@@H](CC(C)C)N(C)C(=O)CN(CC2CCCCC2)C(=O)[C@H](C)NC(=O)CN(Cc2ccc3c(c2)OCO3)C(=O)[C@H]2CCCN2C1=O: PAMPA 6.8 × 10^-6 cm/s
- CCCC[C@@H]1NC(=O)[C@@H](CC(C)C)NC(=O)CN(CC2CCOCC2)C(=O)[C@@H](Cc2ccccc2)NC(=O)CN(CCCOC(C)C)C(=O)[C@@H]2CCCN2C1=O: PAMPA 0.28 × 10^-6 cm/s

Excerpt, the opening 2 entries:

- CCCC[C@@H]1NC(=O)[C@@H](CC(C)C)N(C)C(=O)CN(CC2CCCCC2)C(=O)[C@H](C)NC(=O)CN(Cc2ccc3c(c2)OCO3)C(=O)[C@@H]2CCCN2C1=O: PAMPA 10 × 10^-6 cm/s
- CCCC[C@@H]1NC(=O)[C@H](CC(C)C)NC(=O)CN(CC2CCOCC2)C(=O)[C@@H](Cc2ccccc2)NC(=O)CN(Cc2ccc3c(c2)OCO3)C(=O)[C@H]2CCCN2C1=O: PAMPA 1.3 × 10^-6 cm/s